This data set in a line: USP-simulated intestinal fluid (SIF) peptide stability assay. The following applies: USP-SIF pH 6.8, pancreatin 1× USP (10 mg/mL), 37 °C, 50 μM peptide.

We go through one compound from PMC9059125 (Journal of Medicinal Chemistry, 2022).

Consider `CC[C@H](C)[C@@H]1NC(=O)[C@@H]2CCCN2C(=O)[C@@H]2CCCN2C(=O)[C@H]([C@@H](C)CC)NC(=O)[C@H](CO)NC(=O)[C@H](CCCCN)NC(=O)[C@H]([C@@H](C)O)NC(=O)[C@@H]2CSSC[C@H](NC1=O)C(=O)N[C@H](Cc1ccc(OC)cc1)C(=O)N[C@@H](Cc1ccccc1)C(=O)N[C@@H](CCC(N)=O)C(=O)N[C@@H](CC(N)=O)C(=O)N[C@@H](CCCNC(=N)N)C(=O)N1CCC[C@H]1C(=O)N[C@@H](CCCNC(=N)N)C(=O)N2`, for which the “t1/2 SIF” value is recorded as 3 ± 1 min.
